Measurements published in ChEMBL document CHEMBL4842367, “Strategies toward Discovery of Potent and Orally Bioavailable Proteolysis Targeting Chimera Degraders of Androgen Receptor for the Treatment of Prostate Cancer” (J Med Chem, 2021).

Chains of the proteins cited; added tags and fusions are not shown. Lines headed by an entry give the natural chain unless they say otherwise; changes in a name come on top.
UniProt P10275: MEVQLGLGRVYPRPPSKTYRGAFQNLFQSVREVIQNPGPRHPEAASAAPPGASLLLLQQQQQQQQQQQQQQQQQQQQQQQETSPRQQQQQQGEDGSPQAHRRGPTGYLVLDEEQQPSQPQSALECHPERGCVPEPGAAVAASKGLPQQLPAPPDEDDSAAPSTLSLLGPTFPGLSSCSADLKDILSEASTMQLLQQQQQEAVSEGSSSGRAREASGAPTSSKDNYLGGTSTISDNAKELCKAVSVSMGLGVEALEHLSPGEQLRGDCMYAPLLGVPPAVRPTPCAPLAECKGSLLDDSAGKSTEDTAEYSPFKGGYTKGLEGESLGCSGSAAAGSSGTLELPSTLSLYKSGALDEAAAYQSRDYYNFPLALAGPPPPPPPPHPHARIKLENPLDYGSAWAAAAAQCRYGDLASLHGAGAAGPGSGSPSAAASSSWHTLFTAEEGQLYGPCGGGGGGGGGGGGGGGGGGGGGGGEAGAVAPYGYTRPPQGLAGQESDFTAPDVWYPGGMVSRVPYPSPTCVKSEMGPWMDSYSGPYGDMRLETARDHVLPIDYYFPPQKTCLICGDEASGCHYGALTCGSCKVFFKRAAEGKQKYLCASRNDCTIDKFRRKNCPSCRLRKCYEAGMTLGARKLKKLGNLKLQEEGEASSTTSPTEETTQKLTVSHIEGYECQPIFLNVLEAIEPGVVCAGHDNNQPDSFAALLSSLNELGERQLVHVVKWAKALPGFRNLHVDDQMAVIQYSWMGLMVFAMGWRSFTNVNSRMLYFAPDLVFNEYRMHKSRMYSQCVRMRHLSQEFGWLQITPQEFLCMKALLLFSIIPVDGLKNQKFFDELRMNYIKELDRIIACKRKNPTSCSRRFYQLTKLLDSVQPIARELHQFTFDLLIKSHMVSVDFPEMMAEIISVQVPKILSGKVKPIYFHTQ
UniProt Q96SW2: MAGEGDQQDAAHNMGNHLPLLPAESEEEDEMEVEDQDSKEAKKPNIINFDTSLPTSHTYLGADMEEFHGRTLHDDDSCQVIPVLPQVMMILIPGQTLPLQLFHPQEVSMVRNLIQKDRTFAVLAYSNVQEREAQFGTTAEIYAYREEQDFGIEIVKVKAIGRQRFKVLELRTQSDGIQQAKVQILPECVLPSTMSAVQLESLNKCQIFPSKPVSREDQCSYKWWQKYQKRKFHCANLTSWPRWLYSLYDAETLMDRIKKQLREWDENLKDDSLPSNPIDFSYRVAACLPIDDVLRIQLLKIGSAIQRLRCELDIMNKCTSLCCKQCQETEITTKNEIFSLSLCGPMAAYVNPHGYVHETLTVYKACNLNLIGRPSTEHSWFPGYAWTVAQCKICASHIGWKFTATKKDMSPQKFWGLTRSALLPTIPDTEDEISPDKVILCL

Experiments:
[1] = molecular target: T1, Protein cereblon/Androgen receptor (Homo sapiens, UniProt P10275+Q96SW2); conditions: VCaP, time 24.0 hrs
[2] = tested on: Protein cereblon/Androgen receptor (Homo sapiens), P10275+Q96SW2 [T878A]; conditions: LNCaP, time 24.0 hrs
[3] = molecular target: T1, Protein cereblon/Androgen receptor; assay: Protac activity at CRBN/AR in human VCAP cells assessed as induction of AR degradation at 1 uM by western blot analysis relative to control; assay type: cell-based; conditions: time 24.0 hrs
[4] = molecular target: T1, Protein cereblon/Androgen receptor; assay: Protac activity at CRBN/AR in human VCaP cells assessed as induction of AR degradation at 0.01 uM measured after 24 hrs by western blot analysis relative to control; assay type: cell-based
Outline: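 VCaP cells treated 24 h at 1, 10, 100 and 1000 nM; lysed in RIPA with protease/phosphatase inhibitors, run on 4–12% SDS-PAGE, blotted to PVDF. AR bands background-subtracted and normalized to loading control; degradation relative to DMSO, average of three independent experiments.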

[5] = molecular target: T1, Protein cereblon/Androgen receptor; assay: Protac activity at CRBN/AR in human VCaP cells assessed as induction of AR degradation at 0.001 uM measured after 24 hrs by western blot analysis relative to control; assay type: cell-based
[6] = molecular target: T1, Protein cereblon/Androgen receptor; assay: Protac activity at CRBN/AR in human VCaP cells assessed as induction of AR degradation at 0.1 uM measured after 24 hrs by western blot analysis relative to control; assay type: cell-based

Row | Structure (SMILES) | EC90 [1] [nM] | EC90 [2] [nM] | Activity [3] [%] | Activity [4] [%] | Activity [5] [%] | Activity [6] [%]
1 | CC1(C)[C@H](NC(=O)c2ccc(N3CCN(C4CCN(c5ccc6c(c5)C(=O)N(C5CCC(=O)NC5=O)C6=O)CC4)CC3)cc2)C(C)(C)[C@H]1Oc1ccc(C#N)c(Cl)c1 (some centres undefined) | 2 | 52 | – | – | – | –
2 | CC1(C)[C@H](NC(=O)c2ccc(N3CCN(CC4CCN(c5ccc6c(c5)C(=O)N(C5CCC(=O)NC5=O)C6=O)CC4)CC3)cc2)C(C)(C)[C@H]1Oc1ccc(C#N)c(Cl)c1 (some centres undefined) | 3 | 25 | 96 | 94 | 62 | 98
3 | CC1(C)[C@H](NC(=O)c2ccc(N3CCC(CN4CCN(c5ccc6c(c5)C(=O)N(C5CCC(=O)NC5=O)C6=O)CC4)CC3)cc2)C(C)(C)[C@H]1Oc1ccc(C#N)c(Cl)c1 (some centres undefined) | 2 | 10 | – | – | – | –
4 | CC1(C)[C@H](NC(=O)c2ccc(N3CCC(N4CCN(c5ccc6c(c5)C(=O)N(C5CCC(=O)NC5=O)C6=O)CC4)CC3)cc2)C(C)(C)[C@H]1Oc1ccc(C#N)c(Cl)c1 (some centres undefined) | 2 | 10 | – | – | – | –
5 | CC1(C)[C@H](NC(=O)c2ccc(N3CCN(CC4CN(c5ccc6c(c5)C(=O)N(C5CCC(=O)NC5=O)C6=O)C4)CC3)cc2)C(C)(C)[C@H]1Oc1ccc(C#N)c(Cl)c1 (some centres undefined) | 3 | 41 | – | – | – | –
